Results from patent publication US11807624B2, “Substituted pyrimidinones as agonists of the APJ receptor” (AMGEN INC., priority 2018, dated 2023).

Assays:
APJ receptor = APJ receptor (Homo sapiens (Human), UniProt P35414); conditions: relative to apelin-36; cited from earlier work
[1] = target: human APJ receptor expressed in the CHO cell line (Homo sapiens (Human), UniProt P35414); conditions: APJ receptor expressed alone
[2] = target: human APJ-AT1R (angiotensin Type 1) double stable CHO cell line (Homo sapiens (Human), UniProt P35414); assay: IP1 accumulation (TR-FRET), APJ-AT1R double stable CHO cell line; type: cell-based; conditions: AngII concentration range with fixed concentration of APJ agonist; APJ and AT1R co-expressed
Protocol: The plate was sealed and incubated for 1 hour.

For Apelin-13, the “in vitro affinity to the APJ receptor, fold higher than apelin-36” value (APJ receptor) is listed as ~3.5 fold.

For pyr apelin-13, the “cooperativity on AngII-induced IP1 response” value [1] was “no positive cooperativity observed” and the “cooperativity on AngII-induced IP1 response” value [2] was “induces the positive cooperativity on the AT1R”.
